Measured values taken from US8158643B2, “Substituted diaza-spiro-pyridinone derivatives for use in MCH-1 mediated diseases” (Janssen Pharmaceutica N.V., priority 2006, dated 2012).

Sequences of proteins named here, by UniProt entry; tags and fusion partners are left off.
UniProt Q99705, whole entry: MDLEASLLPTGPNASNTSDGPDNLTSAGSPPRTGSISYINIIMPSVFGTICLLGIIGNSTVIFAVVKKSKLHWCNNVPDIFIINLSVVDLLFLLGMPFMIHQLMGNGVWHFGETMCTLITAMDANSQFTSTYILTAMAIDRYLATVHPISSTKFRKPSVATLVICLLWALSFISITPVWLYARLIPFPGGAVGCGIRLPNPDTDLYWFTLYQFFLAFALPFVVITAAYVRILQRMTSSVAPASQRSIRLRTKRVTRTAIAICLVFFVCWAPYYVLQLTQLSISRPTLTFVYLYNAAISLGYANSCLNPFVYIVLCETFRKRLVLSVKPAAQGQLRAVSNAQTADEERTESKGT

Molecular target: human MCH-1 receptor (Homo sapiens, UniProt Q99705)
Assay: Ca2+ mobilization experiment for the MCH-1 receptor (FLIPR), inhibition of MCH-induced Ca2+ response
Conditions: CHO cells stably expressing human MCH-1 receptor, submaximal MCH concentration

Structure (SMILES)	MCH-1 pIC50
O=c1cc(OCc2ccc(Cl)cc2)ccn1-c1ccc(N2CC3(CCNCC3)C2)cc1	7.6
O=c1cc(OCc2ccccc2)ccn1-c1ccc(N2CC3(CCNCC3)C2)nc1	7.2
